Measured values as given in patent US8637557B2, “Aminothiazole derivative” (Taisho Pharmaceutical Co., Ltd, priority 2009, dated 2014).

Amino acid sequences for entries named in this document (tags omitted).
UniProt P48736, whole entry: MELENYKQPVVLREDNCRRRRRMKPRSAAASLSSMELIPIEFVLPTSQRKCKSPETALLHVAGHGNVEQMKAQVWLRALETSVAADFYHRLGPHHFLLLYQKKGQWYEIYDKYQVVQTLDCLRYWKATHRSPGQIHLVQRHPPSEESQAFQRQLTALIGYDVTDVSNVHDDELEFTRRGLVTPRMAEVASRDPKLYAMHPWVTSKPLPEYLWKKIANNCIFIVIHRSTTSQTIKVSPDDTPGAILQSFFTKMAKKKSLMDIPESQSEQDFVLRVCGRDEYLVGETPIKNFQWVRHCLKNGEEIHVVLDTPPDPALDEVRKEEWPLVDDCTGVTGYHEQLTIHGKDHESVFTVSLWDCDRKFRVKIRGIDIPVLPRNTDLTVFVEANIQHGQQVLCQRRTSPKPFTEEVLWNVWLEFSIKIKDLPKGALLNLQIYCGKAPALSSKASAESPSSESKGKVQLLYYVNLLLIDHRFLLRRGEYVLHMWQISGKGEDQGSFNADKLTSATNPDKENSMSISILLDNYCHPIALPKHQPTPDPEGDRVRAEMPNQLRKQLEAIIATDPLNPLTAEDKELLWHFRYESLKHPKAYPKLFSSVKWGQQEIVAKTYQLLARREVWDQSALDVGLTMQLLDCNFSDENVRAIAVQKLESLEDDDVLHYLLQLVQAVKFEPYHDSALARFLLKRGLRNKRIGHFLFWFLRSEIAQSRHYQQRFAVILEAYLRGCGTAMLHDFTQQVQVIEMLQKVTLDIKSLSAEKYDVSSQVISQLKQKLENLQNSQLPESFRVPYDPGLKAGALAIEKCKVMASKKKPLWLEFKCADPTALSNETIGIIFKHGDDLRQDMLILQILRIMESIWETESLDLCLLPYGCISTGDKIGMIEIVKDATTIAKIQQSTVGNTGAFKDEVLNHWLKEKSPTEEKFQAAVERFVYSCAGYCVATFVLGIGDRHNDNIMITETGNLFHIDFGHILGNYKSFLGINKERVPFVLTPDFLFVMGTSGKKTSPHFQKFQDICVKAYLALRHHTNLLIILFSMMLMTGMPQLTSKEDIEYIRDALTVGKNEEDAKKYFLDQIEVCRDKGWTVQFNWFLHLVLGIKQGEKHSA

Biological target: human PI 3-kinase p120γ (Homo sapiens, UniProt P48736)
Test: PI 3-kinase p120γ enzyme activity inhibition test
Settings: read-out: PI3Kγ (IC50 value class); ATP 10.0 μM, PIP2-PS 5.0 μM, 30° C., 2 hours

Compound | IC50
CC(=O)Nc1nc(C)c(-c2nc(C[C@@H](C)CO)no2)s1 | < 0.1 µM
COCCOCc1noc(-c2sc(NC(C)=O)nc2C)n1 | 0.5 to 10 µM
Cc1nc(NC(=O)NCCC(=O)OC(C)(C)C)sc1-c1nc(CS(C)(=O)=O)no1 | < 0.1 µM
Cc1nc(NC(=O)NCCC(=O)NC(CO)(CO)CO)sc1-c1nc(-c2cccnc2)no1 | < 0.1 µM
